Target: Cathepsin B from bovine spleen (Bos taurus, UniProt P07688)
Experiment: Assay for Cathepsin B activity / inhibition (Z-Lys-pNP substrate, absorbance 330 nm)
Assay type: biochemical

Substance: TNBS-FAK-pNA
- Cathepsin B inhibitory activity (C-terminus containing paranitroanilide (pNA)): limited inhibitory activity
- Cathepsin B inhibitory activity (pNA group removed with NaOH, before and after MGO-modification, data not shown): Inhibitory activity was still not observed
